## scFv variants of Ab-14 (light chain) against a SARS-CoV-2 spike peptide

Target peptide (SARS-CoV-2 spike, HR2 region): PDVDLGDISGINAS

Parent: Ab-14, a human scFv built as VH, three GGGGS repeats, VL. Only the CDRs of the light chain vary.
VH: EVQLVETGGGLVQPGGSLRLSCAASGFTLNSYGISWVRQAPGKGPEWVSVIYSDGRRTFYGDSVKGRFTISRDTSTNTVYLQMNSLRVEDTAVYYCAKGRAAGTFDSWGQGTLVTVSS
VL: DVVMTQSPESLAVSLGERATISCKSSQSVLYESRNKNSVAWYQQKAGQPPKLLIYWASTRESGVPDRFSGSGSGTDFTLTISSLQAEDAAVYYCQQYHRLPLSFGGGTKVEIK

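Phage display of a naive human antibody library on the peptide gave the parent. Designed CDR sequences, proposed from the first random library and measured here. Their group label is 14L_En_Gibbs (En: ensemble of fine-tuned language models; Gibbs: Gibbs sampling). The scFvs were displayed on barcoded MATa yeast, the peptide on MATalpha yeast. The frequency of each diploid, read from paired DNA barcodes, reflects how well the two displayed proteins bind. Each replicate has its own calibration line, from reference interactions of the BCL2 family. There are six technical replicates.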

Sequences are complete VL domains. Numbers give log10(Kd / nM), so 0 is 1 nM and 3 is 1 µM. Smaller is tighter. Averages over replicates are reported, and they cover detected replicates only. "nd" marks a missing value. The strain was present, yet no cells mated with the target were sequenced in that replicate, which points to weak or no binding.

| VL | log10 Kd (nM) by replicate | mean, log10 nM | control signals |
|---|---|---|---|
| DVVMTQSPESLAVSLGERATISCKVDISPHVQGMHKSGVAWYQQKAGQPPKLLIYEHDMRVGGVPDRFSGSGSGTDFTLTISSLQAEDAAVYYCQQYFRLPLAFGGGTKVEIK | 0.56 1.08 0.22 0.57 0.34 1.65 | 0.74 | 0 of 18 |
| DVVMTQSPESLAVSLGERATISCKLLSLSLHQTGKLNSVAWYQQKAGQPPKLLIYDATITQQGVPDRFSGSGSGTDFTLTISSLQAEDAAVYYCQQYMSLPLMFGGGTKVEIK | 0.55 0.41 0.19 0.26 0.66 0.93 | 0.50 | 0 of 18 |
| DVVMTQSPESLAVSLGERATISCNVRDSLGYVQNVGSAVAWYQQKAGQPPKLLIYEASQVEDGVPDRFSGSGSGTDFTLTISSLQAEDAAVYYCQQYYTLPLTFGGGTKVEIK | 1.30 0.67 1.43 1.19 1.53 1.57 | 1.28 | 1 of 18 (2.11) |
| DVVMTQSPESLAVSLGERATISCNIVGRAQMQDSGRNAIAWYQQKAGQPPKLLIYNAHARCTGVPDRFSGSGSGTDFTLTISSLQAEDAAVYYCQQYFRLPLTFGGGTKVEIK | 0.88 0.69 0.77 0.75 0.68 0.93 | 0.78 | 2 of 18 (2.79) |
| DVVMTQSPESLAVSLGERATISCMVSMMPNEGTRYWEAVAWYQQKAGQPPKLLIYDHSQRNNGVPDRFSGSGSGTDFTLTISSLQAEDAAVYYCQQYDQLPLSFGGGTKVEIK | nd nd nd nd nd nd | nd | 0 of 18 |
| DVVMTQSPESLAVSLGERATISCFLAYALDQDGLIKNNIAWYQQKAGQPPKLLIYQTNLLENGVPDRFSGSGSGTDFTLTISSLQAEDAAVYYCQQYERLPLAFGGGTKVEIK | 1.48 1.30 1.12 1.24 0.93 1.19 | 1.21 | 0 of 18 |
| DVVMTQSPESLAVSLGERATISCNMTLQVRNGENNKYNIAWYQQKAGQPPKLLIYAEMKRVYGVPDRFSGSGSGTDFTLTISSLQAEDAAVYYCQQYQRLPLMFGGGTKVEIK | 1.37 1.25 1.10 1.35 1.35 1.36 | 1.29 | 0 of 18 |
| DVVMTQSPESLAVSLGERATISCHMNTLDVGVSDHYNSVAWYQQKAGQPPKLLIYEQRAAGIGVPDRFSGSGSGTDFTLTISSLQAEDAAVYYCQQYFRLPLSFGGGTKVEIK | 2.13 1.99 2.29 1.01 0.96 1.76 | 1.69 | 1 of 18 (2.01) |
| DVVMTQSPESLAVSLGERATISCMFDQQTMNENDKNNAVAWYQQKAGQPPKLLIYEVTHLVNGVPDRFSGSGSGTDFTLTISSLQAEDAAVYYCQQYAQLPLIFGGGTKVEIK | nd nd nd nd nd nd | nd | 0 of 18 |
| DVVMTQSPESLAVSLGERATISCNLGGEDANDTRGMMAVAWYQQKAGQPPKLLIYDVSTVGEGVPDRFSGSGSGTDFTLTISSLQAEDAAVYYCQHYNRLPLSFGGGTKVEIK | nd 2.42 nd nd nd nd | 2.42 | 2 of 18 (2.23) |
| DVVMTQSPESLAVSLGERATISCKLVQEKSGGIANMQNIAWYQQKAGQPPKLLIYAADVLSQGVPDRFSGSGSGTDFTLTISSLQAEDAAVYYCQQYNKLPLSFGGGTKVEIK | 0.12 0.19 0.43 0.16 0.47 0.73 | 0.35 | 0 of 18 |
| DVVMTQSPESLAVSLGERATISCKLSMEPLVEWNRAQAIAWYQQKAGQPPKLLIYDAHMSYIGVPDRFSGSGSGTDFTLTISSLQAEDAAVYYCQQYFTLPLYFGGGTKVEIK | nd nd nd nd nd nd | nd | 0 of 18 |
| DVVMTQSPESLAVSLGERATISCKLKYQADHYGMNQNNVAWYQQKAGQPPKLLIYQADIRAPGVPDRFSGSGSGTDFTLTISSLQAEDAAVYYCQQYNKLPLNFGGGTKVEIK | 0.10 0.12 0.00 0.01 -0.01 0.17 | 0.07 | 2 of 18 (1.96) |
| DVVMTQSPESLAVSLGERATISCFMEMDFDGNDVNRNSIAWYQQKAGQPPKLLIYSSEVVTRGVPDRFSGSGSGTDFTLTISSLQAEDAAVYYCQHYARLPLSFGGGTKVEIK | nd nd nd nd nd nd | nd | 0 of 18 |
| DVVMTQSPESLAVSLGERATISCNFGQKMALITGQRQQIAWYQQKAGQPPKLLIYDSTVREDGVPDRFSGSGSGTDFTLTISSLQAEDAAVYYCQQYSRLPLTFGGGTKVEIK | 0.21 -0.09 0.32 0.22 0.05 0.18 | 0.15 | 1 of 18 (3.19) |
| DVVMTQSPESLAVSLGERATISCHITDLHYFGNEGEWNIAWYQQKAGQPPKLLIYDKNISVMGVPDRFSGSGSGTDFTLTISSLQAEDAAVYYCQQYFRLPLSFGGGTKVEIK | 0.46 0.33 0.59 0.19 0.38 0.40 | 0.39 | 2 of 18 (1.82) |
| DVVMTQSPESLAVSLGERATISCQLSHPSDSWQIHQDSIAWYQQKAGQPPKLLIYDDNLSLTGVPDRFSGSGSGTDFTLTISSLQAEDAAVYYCQQYHQLPLSFGGGTKVEIK | nd nd nd nd 1.43 nd | 1.43 | 0 of 18 |
| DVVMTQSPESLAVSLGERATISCKIQDNLGTLMEQINSIAWYQQKAGQPPKLLIYNSEEIVQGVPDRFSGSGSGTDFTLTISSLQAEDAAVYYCQSYFRLPLSFGGGTKVEIK | 1.44 nd 1.56 nd 1.13 1.56 | 1.42 | 0 of 18 |
| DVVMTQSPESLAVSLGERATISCYMSGQIDGGWNQQEAIAWYQQKAGQPPKLLIYEVTYKEDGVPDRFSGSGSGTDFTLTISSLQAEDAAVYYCQQYYHLPLSFGGGTKVEIK | nd nd nd nd 3.62 nd | 3.62 | 1 of 18 (2.69) |
| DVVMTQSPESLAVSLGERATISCKVSQGIFDGERNSHQIAWYQQKAGQPPKLLIYEVTQLCTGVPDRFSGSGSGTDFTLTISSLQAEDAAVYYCQQYSRLPLEFGGGTKVEIK | 1.09 1.31 1.17 1.49 1.51 1.43 | 1.33 | 1 of 18 (3.27) |
| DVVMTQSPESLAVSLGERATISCQINLQGLSAALNNRAVAWYQQKAGQPPKLLIYAKNLRVAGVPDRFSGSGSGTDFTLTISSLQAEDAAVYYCQQYNRLPLSFGGGTKVEIK | 0.45 0.23 0.28 0.19 0.15 0.28 | 0.27 | 2 of 18 (2.47) |
| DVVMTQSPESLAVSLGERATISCNIRGVEFESAMMGNAVAWYQQKAGQPPKLLIYGMSLVMAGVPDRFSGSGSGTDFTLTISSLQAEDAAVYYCQQYFRLPLHFGGGTKVEIK | nd 2.66 nd nd 0.93 1.21 | 1.60 | 0 of 18 |
| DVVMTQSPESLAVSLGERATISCTIDDEMPSHGLKWNSIAWYQQKAGQPPKLLIYGVATVLQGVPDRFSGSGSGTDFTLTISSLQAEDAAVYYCQQYHRLPLQFGGGTKVEIK | 2.30 1.76 2.46 2.16 1.84 2.34 | 2.14 | 1 of 18 (3.17) |

Extract of 3 entries:

VL,log10 Kd (nM) by replicate,"mean, log10 nM",control signals
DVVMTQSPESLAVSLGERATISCQLSHPSDSWQIHQDSIAWYQQKAGQPPKLLIYDDNLSLTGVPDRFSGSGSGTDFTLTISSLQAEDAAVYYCQQYHQLPLSFGGGTKVEIK,nd nd nd nd 1.43 nd,1.43,0 of 18
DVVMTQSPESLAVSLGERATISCNIRGVEFESAMMGNAVAWYQQKAGQPPKLLIYGMSLVMAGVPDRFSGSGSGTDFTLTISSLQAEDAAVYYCQQYFRLPLHFGGGTKVEIK,nd 2.66 nd nd 0.93 1.21,1.60,0 of 18
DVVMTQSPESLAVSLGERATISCFMEMDFDGNDVNRNSIAWYQQKAGQPPKLLIYSSEVVTRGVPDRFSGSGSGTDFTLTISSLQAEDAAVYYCQHYARLPLSFGGGTKVEIK,nd nd nd nd nd nd,nd,0 of 18

The authors averaged sequences with at least three values out of six and counted those with two or fewer as poor binders. Background: pairings of all light chain designs with three empty control strains gave a value in 4% of cases (median 2.64, 5th percentile 1.59). Values in that range, when seen in few replicates, are hard to tell from nonspecific mating. For each scFv, signals with the empty controls are counted beside the result, with their mean in brackets. Values of this round are not directly comparable with the first-round values of the same sequences.

Data: MIT Lincoln Laboratory AlphaSeq set, Li et al. 2023, doi:10.1038/s41467-023-39022-2, as distributed in FLAb.